Experimental findings from ChEMBL document CHEMBL5335795, “Development of potent isoflavone-based formyl peptide receptor 1 (FPR1) antagonists and their effects in gastric cancer cell models” (Eur J Med Chem, 2023) are described below.

Calls of active or inactive are those of the source. The calls are words filed in the database; no cut-off is given here.

The assay has as its target T1, N-formyl peptide receptor 2 (Homo sapiens) (UniProt P25090).
T1 sequence (whole entry): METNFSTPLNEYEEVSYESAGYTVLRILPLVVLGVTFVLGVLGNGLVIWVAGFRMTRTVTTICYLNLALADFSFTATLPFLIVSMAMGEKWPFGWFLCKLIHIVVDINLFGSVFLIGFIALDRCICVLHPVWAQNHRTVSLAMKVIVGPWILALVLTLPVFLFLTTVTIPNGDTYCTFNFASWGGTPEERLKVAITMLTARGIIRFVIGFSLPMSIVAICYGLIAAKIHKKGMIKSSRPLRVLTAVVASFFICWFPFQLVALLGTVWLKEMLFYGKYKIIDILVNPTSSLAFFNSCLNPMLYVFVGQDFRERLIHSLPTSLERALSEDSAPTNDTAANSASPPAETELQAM
Put plainly: Antagonist activity against human FPR2 expressed in human HL-60 cells assessed as inhibition of WKYMVM-induced calcium mobilization preincubated for 10 mins followed by WKYMVM addition and measured every 5s for 240s by Fluo4AM dye based scanning fluorimetric analysis. It is filed as functional, cell-based. Particulars: time 840.0 sec. Background: A change in cytosolic calcium serves as a functional read-out for many receptors and channels.

In the case of `CCCCCCC(=O)Oc1cc2oc(C)c(-c3ccc(OC)cc3)c(=O)c2cc1C`, the inhibition result was “inactive”. With `CCCc1cc2c(=O)c(-c3ccc(OC)cc3)c(C)oc2cc1OC(C)=O` the entry was “inactive”; with `CCCCCCc1cc2c(=O)c(-c3ccc(OC)cc3)c(C(F)(F)F)oc2cc1OC(C)=O`, “inactive”; with `CCCCCCc1cc2c(=O)c(-c3ccccc3OC)c(C)oc2cc1NC(C)=O`, “inactive”. `CCCCCCc1cc2c(=O)c(-c3ccccc3OC)c(C)oc2cc1OCC(F)F`: the inhibition entry was “inactive”. As for `CCCCCCc1cc2c(=O)c(-c3cccc(OC)c3)c(C)oc2cc1NC(C)=O`, the entry is “inactive”; as for `CCCCCCc1cc2c(=O)c(-c3ccccc3OC)c(C(F)(F)F)oc2cc1OC(C)=O`, “inactive”. With `CCCc1cc2c(=O)c(-c3ccccc3OC)c(C)oc2cc1NC(C)=O` the entry was “inactive”. With `CCCCCCC(=O)Oc1cc2oc(C)c(-c3ccccc3OC)c(=O)c2cc1C` the entry was “inactive”.

Consider `CCCCCCc1cc2c(=O)c(-c3cccc(OC)c3)c(C)oc2cc1OC(C)=O`, for which the inhibition result was “inactive”. As for `CCc1cc2c(=O)c(-c3ccccc3OC)c(C)oc2cc1OC(C)=O`, the inhibition result was “inactive”. As for `CCCc1cc2c(=O)c(-c3ccccc3OC)c(C)oc2cc1OC(C)=O`, the entry is “inactive”; as for `CCCCCCc1cc2c(=O)c(-c3ccccc3OC)c(C)oc2cc1OC(C)=O`, “inactive”. With `CCCCCCc1cc2c(=O)c(-c3ccc(OC)cc3)c(C)oc2cc1OC(C)=O` the entry was “inactive”; with `CCCCCCc1cc2c(=O)c(-c3ccc(OC)cc3)c(C)oc2cc1NC(C)=O`, “inactive”.
